Columns and labels:
rats = assay: Acute toxicity test on rats; settings: dose of 200 mg/kg body weight
PDZ1/2 domain = PDZ1/2 domain (Homo sapiens, UniProt P78352); assay: Biacore interaction force test of chimeric peptides with PDZ1/2 domain; settings: Biacore 3000, CM5 chip, immobilised PDZ1/2 protein, 1:1 binding model

The chains behind the UniProt entries cited, without tags or fusion partners. Residues count along the entry.
UniProt P78352, 61-249 limits assumed: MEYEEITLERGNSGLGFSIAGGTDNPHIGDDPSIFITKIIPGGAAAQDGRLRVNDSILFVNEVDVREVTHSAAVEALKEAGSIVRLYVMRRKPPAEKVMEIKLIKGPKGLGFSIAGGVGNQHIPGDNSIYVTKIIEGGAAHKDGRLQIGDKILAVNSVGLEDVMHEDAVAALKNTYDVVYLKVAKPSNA

Compound	acute toxicity (rats)	Kd (PDZ1/2 domain)
CC(C)C[C@H](NC(=O)[C@H](CCCCN)NC(=O)[C@H](CCC(=O)O)NC(=O)[C@H](Cc1ccc(O)cc1)NC(=O)[C@H](CCCNC(=N)N)NC(=O)[C@H](CCCNC(=N)N)NC(=O)[C@H](CCCNC(=N)N)NC(=O)[C@H](CCC(N)=O)NC(=O)[C@H](CCCNC(=N)N)NC(=O)[C@H](CCCNC(=N)N)NC(=O)[C@H](CCCCN)NC(=O)[C@H](CCCCN)NC(=O)[C@H](CCCNC(=N)N)NC(=O)CNC(=O)[C@@H](N)Cc1ccc(O)cc1)C(=O)N[C@H](C(=O)N[C@H](C(=O)N[C@@H](CC(C)C)C(=O)N[C@@H](CC(=O)O)C(=O)N[C@H](C(=O)NCC(=O)NCC(=O)N[C@H](C(=O)O)C(C)C)[C@@H](C)O)[C@@H](C)O)[C@@H](C)O [P6]	no lethal effect and other obvious toxic side effects	–
CC[C@H](C)[C@H](NC(=O)[C@H](CO)NC(=O)[C@H](CO)NC(=O)[C@H](CC(C)C)NC(=O)[C@H](CCCCN)NC(=O)[C@H](CCC(=O)O)NC(=O)[C@H](Cc1ccc(O)cc1)NC(=O)[C@H](CCCNC(=N)N)NC(=O)[C@H](CCCNC(=N)N)NC(=O)[C@H](CCCNC(=N)N)NC(=O)[C@H](CCC(N)=O)NC(=O)[C@H](CCCNC(=N)N)NC(=O)[C@H](CCCNC(=N)N)NC(=O)[C@H](CCCCN)NC(=O)[C@H](CCCCN)NC(=O)[C@H](CCCNC(=N)N)NC(=O)CNC(=O)[C@@H](N)Cc1ccc(O)cc1)C(=O)N[C@@H](CCC(=O)O)C(=O)N[C@@H](CO)C(=O)N[C@@H](CC(=O)O)C(=O)N[C@H](C(=O)O)C(C)C [YE-NA-1, reference compound]	–	54.4 nM

Reference: US20190134150A1, “THERAPEUTIC METHODS FOR EXCITATORY NEUROTOXICITY-RELATED INJURIES” (Biocells (Beijing) Biotech Co., Ltd., priority 2016, published 2019)
